In patent US20120148556A1 one finds IC50 data, which are given here for 1 substance.

pIC50: −log10 of the molar value.

Experiment [1] concerns the target IGF-II receptor (IGF-IIR). Put plainly: Receptor Binding Assay (IGF-II receptor competitive binding assay against biotinylated IGF-II, plate format); lyophilized product after 12 months at 2-8 C.
The target of experiment [2] is IGF-II receptor (IGF-IIR). Put plainly: Receptor Binding Assay (IGF-II receptor competitive binding assay against biotinylated IGF-II, plate format); lyophilized product at release.

With “ZC-701 (from UniProt P10253 70-952) (enzyme)”, the pIC50 (usually −log10 of the IC50, conventionally taken in molar units) in experiment [1] was 7.62; in experiment [2], 7.48.
